Experimental data reported in patent US11555013B2, “Potent and selective inhibitors of monoamine transporters; method of making; and use thereof” (priority 2013, dated 2023).

System: Swiss Webster mice
Experiment: Mouse locomotor activity test
Conditions: in vivo

COC(=O)[C@H]1[C@@H](OC(=O)c2ccccc2)C[C@@H]2CC[C@H]1N2C [cocaine, reference compound]
locomotor stimulation (ambulatory distance, FIG. 2): locomotor stimulation
